Results taken from PMC12125552.

Columns and labels:
[1] = biological target: DdMyo7 long heavy meromyosin (lnHMM), FLAG-tagged (Dictyostelium); assay: co-IP; lnHMM (FLAG) precipitated with anti-Flag beads from a MgATP-released, myosin-enriched cytoskeletal fraction of talA null cells; washed in Flag buffer (25 mM Hepes pH 7.4, 300 mM NaCl, 10 mM MgCl2 and 5 mM EGTA, or 2 mM CaCl2); eluted with Flag peptide; gel stained with Coomassie or Sypro Ruby, densitometry normalised to molecular weights; lower band identified by mass spectrometry
[2] = biological target: DdMyo7 short heavy meromyosin forced-dimer GFP (shHMM-FD-GFP) (Dictyostelium | not stated); assay: co-IP; as a2, but the resin washed in IP wash buffer + 2 mM CaCl2 (+Ca2+); immunoblot signal normalised for gel load and heavy chain abundance
[3] = biological target: DdMyo7 short heavy meromyosin forced-dimer GFP (shHMM-FD-GFP) (Dictyostelium | not stated)

## Dictyostelium calmodulin CalA (from UniProt P02599 1-152) (natural protein)
[1]
  stoichiometry N: 2.08 CalA per HC
[2]
  reduction of immunoblot signal with Ca2+: 99.7%
[3]
  velocity of shHMM-FD on F-actin (TIRF motility assay) with 100 μM free Ca2+, against 40.7 nm/s without Ca2+: 23.6 nm/s
